BindingDB's records for 33062182

Amino acid sequences for entries named in this document (tags omitted).
UniProt Q30W70, whole entry, looked up: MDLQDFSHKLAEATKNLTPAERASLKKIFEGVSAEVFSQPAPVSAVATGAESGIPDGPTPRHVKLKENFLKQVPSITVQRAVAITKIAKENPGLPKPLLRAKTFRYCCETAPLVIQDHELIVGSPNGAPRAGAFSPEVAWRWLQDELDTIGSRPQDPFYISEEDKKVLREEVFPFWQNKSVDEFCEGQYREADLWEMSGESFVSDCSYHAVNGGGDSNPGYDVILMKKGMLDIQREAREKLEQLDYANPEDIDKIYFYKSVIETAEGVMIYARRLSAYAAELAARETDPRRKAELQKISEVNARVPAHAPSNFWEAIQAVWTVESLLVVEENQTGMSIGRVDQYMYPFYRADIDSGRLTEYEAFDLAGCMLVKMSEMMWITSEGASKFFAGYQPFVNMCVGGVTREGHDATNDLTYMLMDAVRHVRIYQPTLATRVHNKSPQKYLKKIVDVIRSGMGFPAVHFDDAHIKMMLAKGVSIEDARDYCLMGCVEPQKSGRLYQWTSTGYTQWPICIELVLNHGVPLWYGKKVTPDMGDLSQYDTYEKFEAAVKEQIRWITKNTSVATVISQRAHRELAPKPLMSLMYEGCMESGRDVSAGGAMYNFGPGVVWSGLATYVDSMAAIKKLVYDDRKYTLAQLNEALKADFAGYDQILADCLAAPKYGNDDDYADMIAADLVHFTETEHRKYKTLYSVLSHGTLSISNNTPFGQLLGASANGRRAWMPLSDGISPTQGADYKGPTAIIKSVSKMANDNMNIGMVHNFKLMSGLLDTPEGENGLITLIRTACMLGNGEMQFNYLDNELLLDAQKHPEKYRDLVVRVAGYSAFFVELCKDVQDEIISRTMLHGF

Target: Choline trimethylamine-lyase (Oleidesulfovibrio alaskensis (strain ATCC BAA-1058 / DSM 17464 / G20), UniProt Q30W70)

Q: With `CN1CCCC(O)C1` (stereo unspecified) as the molecule, how does the IC50 read?
A: 2000 µM
